Experimental data taken from patent publication US11986790B2, “Method for preparing microcapsules” (LG Household & Health Care Ltd., priority 2018, dated 2024).

Test: Water solubility of acrylic monomers
Type: physicochemical
Text: Specific examples of such acrylic monomers may include one or more selected from the group consisting of dipropyleneglycol diacrylate, diethyleneglycol diacrylate, and tetraethyleneglycol dimethacrylate, as shown in the following Table 1.

**Q.** What does the source list for Diethyleneglycole diacrylate?
**A.** water solubility (Table 1, room temperature of 25° C.): 10-50 g/L; water solubility (stated in the example text for the monomer used): about 25 g/L
